In the experiment the test system is Streptococcus Pneumonia 5979. The experiment in a line: in vitro antibacterial activity (MIC), agar dilution. Type of experiment: cell-based. The settings on record: organism code ZZ; BHI agar, 35-37° C., 20 to 24 hours; unit assumed. As for the experimental part:
Representative compounds of the present invention were assayed in vitro for antibacterial activity as follows: Twelve petri dishes containing successive aqueous dilutions of the test compound mixed with 10 mL of sterilized Brain Heart Infusion (BHI) agar (Difco 0418-01-5) were prepared. Each plate was inoculated with 1:100 (or 1:10 for slow-growing strains, such as Micrococcus and Streptococcus) dilutions of up to 32 different microorganisms, using a Steers replicator block. The inoculated plates were incubated at 35-37° C. for 20 to 24 hours. In addition, a control plate, using BHI agar containing no test compound, was prepared and incubated at the beginning and end of each test.
An additional plate containing a compound having known susceptibility patterns for the organisms being tested and belonging to the same antibiotic class as the test compound was also prepared and incubated as a further control, as well as to provide test-to-test comparability. Erythromycin A was used for this purpose.
After incubation, each plate was visually inspected. The minimum inhibitory concentration (MIC) was defined as the lowest concentration of drug yielding no growth, a slight haze, or sparsely isolated colonies on the inoculum spot as compared to the growth control.
(Agar dilution tests growth on a series of plates holding different concentrations.)

SMILES strings stand for the structures.

As to `CC[C@H]1OC(=O)[C@H](C)[C@@H](O[C@H]2C[C@@](C)(OC)[C@@H](O)[C@H](C)O2)[C@H](C)[C@@H](O[C@@H]2O[C@H](C)C[C@H](N(C)C)[C@H]2O)[C@](C)(O)C[C@@H](C)C(=O)[C@H](C)[C@@H](O)[C@]1(C)O` [Ery. A, Erythromycin A, reference compound], the MIC is more than 128 µg/mL.

For orientation: MIC means the least concentration at which growth counts as inhibited. Lower therefore signals inhibition by little substance.

(Values after patent US6054435A, “6-O-substituted macrolides having antibacterial activity” (priority 1999, dated 2000).)
